Experimental data reported in US10155802B2, “Locally-active anticoagulants and anti-inflammatory agents” (priority 2011, dated 2018).

Experiments:
Human α-thrombin = molecular target: T1, Human α-thrombin (Homo sapiens, UniProt P00734); experiment: Inhibition of thrombin-catalyzed hydrolysis of chromogenic substrate S-2366 (inhibition constant Ki); format: biochemical; details: KD (dissociation constant of open species = Ki x popen), T = 37° C.
T1 construct: Human α-thrombin was purchased from Haemotologic Technologies, Inc., VT, USA; purchased Haemotologic Technologies, Inc., VT, USA

[1] = Thermal unfolding of hairpin linkers (Tm, unfolded population punfold); format: physicochemical; details: calculated, two-state unfolding
From the text: Assuming a two-state unfolding of the trpzip linkers, the unfolded populations punfold=popen (Table 3) can be calculated using reported thermal characteristics of isolated trpzip peptides (Cochran 2001). It is important (Cochran 2001) to take into consideration bulk temperature dependences of the enthalpy and entropy differences between folded and unfolded states of trpzip peptides (Privalov 1997). Disregard for the appreciable ΔCp difference between folded and unfolded species would lead to particularly large underestimation of punfold for BTI5, since the bulk temperatures used for Ki determination were far from the trpzip4 folding transition point.
The punfold value for the BTI2 inhibitor was calculated using ΔH=11.6 kcal/mol and ΔS=39 cal/mol/K obtained in earlier studies of the gb1 peptide (Munoz 1997), which gives punfold values of 0.44 and 0.69 at 21° C. and 37° C., respectively. […] (Table 3). More importantly, all the KD values are close to those of BTI1 which contains a flexible (or random-coil) (GS)8 linker, which confirms the predicted small variation in KD values for bivalent ligands connected by flexible linkers of equal contour length and similar composition (Zhou 2001a; Zhou, 2001b).

Row | Structure (SMILES) | Kd (Human α-thrombin) [nM] | punfold (population of unfolded/open linker) ([1]; T = 21° C.) | punfold (population of unfolded/open linker) ([1]; T = 37° C.)
1 | CC[C@H](C)[C@H](NC(=O)[C@H](CCC(=O)O)NC(=O)[C@H](CCC(=O)O)NC(=O)[C@H](Cc1ccccc1)NC(=O)[C@H](CC(=O)O)NC(=O)CNC(=O)[C@H](CCC(=O)O)NC(=O)[C@@H](NC(=O)[C@@H](NC(=O)[C@@H](NC(=O)[C@H](Cc1ccccc1)NC(=O)[C@@H](NC(=O)[C@H](CCCCN)NC(=O)[C@@H](NC(=O)[C@H](C)NC(=O)[C@H](CC(=O)O)NC(=O)[C@H](CC(=O)O)NC(=O)[C@H](Cc1ccc(O)cc1)NC(=O)[C@@H](NC(=O)[C@H](Cc1c[nH]c2ccccc12)NC(=O)[C@H](CCC(=O)O)NC(=O)CNC(=O)[C@H]1CCCCN1C(=O)[C@H](CCCNC(=N)N)NS(=O)(=O)c1ccc(C(C)(C)C)cc1)[C@@H](C)O)[C@@H](C)O)[C@@H](C)O)[C@@H](C)O)C(C)C)[C@@H](C)O)C(=O)N1CCC[C@H]1C(=O)N[C@@H](CCC(=O)O)C(=O)N[C@@H](CCC(=O)O)C(=O)N[C@@H](Cc1ccc(O)cc1)C(=O)N[C@@H](CC(C)C)C(=O)N[C@@H](CCC(N)=O)C(=O)O [BTI2] | 2.8 ± 0.1 | 0.44 | 0.69
2 | CC[C@H](C)[C@H](NC(=O)[C@H](CCC(=O)O)NC(=O)[C@H](CCC(=O)O)NC(=O)[C@H](Cc1ccccc1)NC(=O)[C@H](CC(=O)O)NC(=O)CNC(=O)[C@H](CCC(=O)O)NC(=O)[C@@H](NC(=O)[C@H](Cc1c[nH]c2ccccc12)NC(=O)[C@@H](NC(=O)[C@H](Cc1c[nH]c2ccccc12)NC(=O)[C@@H](NC(=O)[C@H](CCCCN)NC(=O)[C@@H](NC(=O)[C@H](C)NC(=O)[C@H](CC(=O)O)NC(=O)[C@H](CC(=O)O)NC(=O)[C@H](Cc1c[nH]c2ccccc12)NC(=O)[C@@H](NC(=O)[C@H](Cc1c[nH]c2ccccc12)NC(=O)[C@H](CCC(=O)O)NC(=O)CNC(=O)[C@H]1CCCCN1C(=O)[C@H](CCCNC(=N)N)NS(=O)(=O)c1ccc(C(C)(C)C)cc1)[C@@H](C)O)[C@@H](C)O)[C@@H](C)O)[C@@H](C)O)[C@@H](C)O)C(=O)N1CCC[C@H]1C(=O)N[C@@H](CCC(=O)O)C(=O)N[C@@H](CCC(=O)O)C(=O)N[C@@H](Cc1ccc(O)cc1)C(=O)N[C@@H](CC(C)C)C(=O)N[C@@H](CCC(N)=O)C(=O)O [BTI5] |  | 0.050 ± 0.004 | 0.082 ± 0.006
3 | CC[C@H](C)[C@H](NC(=O)[C@H](CCC(=O)O)NC(=O)[C@H](CCC(=O)O)NC(=O)[C@H](Cc1ccccc1)NC(=O)[C@H](CC(=O)O)NC(=O)CNC(=O)[C@H](CCC(=O)O)NC(=O)[C@@H](NC(=O)[C@@H](NC(=O)[C@@H](NC(=O)[C@H](Cc1c[nH]c2ccccc12)NC(=O)[C@@H](NC(=O)[C@H](CCCCN)NC(=O)[C@@H](NC(=O)[C@H](C)NC(=O)[C@H](CC(=O)O)NC(=O)[C@H](CC(=O)O)NC(=O)[C@H](Cc1c[nH]c2ccccc12)NC(=O)[C@@H](NC(=O)[C@H](Cc1c[nH]c2ccccc12)NC(=O)[C@H](CCC(=O)O)NC(=O)CNC(=O)[C@H]1CCCCN1C(=O)[C@H](CCCNC(=N)N)NS(=O)(=O)c1ccc(C(C)(C)C)cc1)[C@@H](C)O)[C@@H](C)O)[C@@H](C)O)[C@@H](C)O)C(C)C)[C@@H](C)O)C(=O)N1CCC[C@H]1C(=O)N[C@@H](CCC(=O)O)C(=O)N[C@@H](CCC(=O)O)C(=O)N[C@@H](Cc1ccc(O)cc1)C(=O)N[C@@H](CC(C)C)C(=O)N[C@@H](CCC(N)=O)C(=O)O [BTI3] |  | 0.29 ± 0.09 | 0.41 ± 0.09
4 | CC[C@H](C)[C@H](NC(=O)[C@H](CCC(=O)O)NC(=O)[C@H](CCC(=O)O)NC(=O)[C@H](Cc1ccccc1)NC(=O)[C@H](CC(=O)O)NC(=O)CNC(=O)[C@H](CCC(=O)O)NC(=O)[C@@H](NC(=O)[C@H](Cc1c[nH]c2ccccc12)NC(=O)[C@@H](NC(=O)[C@H](Cc1ccccc1)NC(=O)[C@@H](NC(=O)[C@H](CCCCN)NC(=O)[C@@H](NC(=O)[C@H](C)NC(=O)[C@H](CC(=O)O)NC(=O)[C@H](CC(=O)O)NC(=O)[C@H](Cc1ccc(O)cc1)NC(=O)[C@@H](NC(=O)[C@H](Cc1c[nH]c2ccccc12)NC(=O)[C@H](CCC(=O)O)NC(=O)CNC(=O)[C@H]1CCCCN1C(=O)[C@H](CCCNC(=N)N)NS(=O)(=O)c1ccc(C(C)(C)C)cc1)[C@@H](C)O)[C@@H](C)O)[C@@H](C)O)[C@@H](C)O)[C@@H](C)O)C(=O)N1CCC[C@H]1C(=O)N[C@@H](CCC(=O)O)C(=O)N[C@@H](CCC(=O)O)C(=O)N[C@@H](Cc1ccc(O)cc1)C(=O)N[C@@H](CC(C)C)C(=O)N[C@@H](CCC(N)=O)C(=O)O [BTI4] | 2.8 ± 0.4 | 0.24 ± 0.04 | 0.41 ± 0.05
